Results as given in patent publication US20210161894A1, “Compositions and Methods for Modulating Liver Endothelial Cell Fenestrations” (priority 2017, published 2021).

Tested on: isolated LSECs (liver sinusoidal endothelial cells)
Test: SEM of fenestrations in isolated LSECs from young and old mice after 30 min drug treatment (second Example 7)
Type: cell-based
Details: old mice
Method: 3-4 and 18-24 month old male C57/B16 mice were obtained from the Animal Resource Centre in Perth, Western Australia. Animals were housed at the ANZAC Research Institute animal house on a 12 hour light/dark cycle and provided with ad libitum access to food and water. Mice were not fasted prior to euthanasia by a single intraperitoneal injection with 100 mg/kg ketamine and 10 mg/kg xylazine in saline. The study was approved by the Animal Welfare Committee of the Sydney Local Health District and was performed in accordance with the Australian Code of Practice for the care and use of animals for scientific research (AWC 2016/009). All information provided accords with the ARRIVE guidelines.
As described previously (Cogger et al. J e52698, 2015 https://dx.doi.org/10.3791/52698), mouse LSEC isolation was performed by perfusion of the liver with collagenase. Non-parenchymal cells were removed by a two-step Percoll gradient and Kupffer cells were removed by selective adherence to plastic. LSECs (seeded at 0.5×10^6 cells/cm2) were cultured (37° C., 5% CO2) in serum free RPMI-1640 for 3.5 hours before use.
Cells were treated with various agents for 30 minutes to determine effects on fenestrations. All agents were dissolved in serum-free RPMI media. All experiments were performed in triplicate for both young and old mice. […]

CCC(C)(C)C(=O)O[C@H]1C[C@@H](C)C=C2C=C[C@H](C)[C@H](CC[C@@H]3C[C@@H](O)CC(=O)O3)[C@H]21 [Simvastatin, simvastatin]
Porosity (0.1 μg/ml): 3.56 ± 1.75%
Porosity (1 μg/ml): 3.54 ± 1.86%
